# Laboratory results from published antibiotic growth screens (doi:10.1038/s41589-023-01349-8).
# The list shows a part of the results.
# Tested on: A. baumannii ATCC 17978
# Experiment: relative growth (fraction of control); higher = less inhibition
# Conditions: 50 µM
row,SMILES,relative growth
1,O[C@H]1C2CN3CCN(C2)CC1(c1ccccc1)C3,0.944
2,CCOC1O[C@@H]2O[C@]3(C)CC[C@H]4[C@H](C)CC[C@@H]([C@H]1C)[C@@]24OO3 (some centres not stated),1.22
3,NCCc1c[nH]c2ccccc12,0.912
4,[N-]=[N+]=NCc1ccccc1C[C@]1(C(=O)N2CCOCC2)N=C(c2ccc(OCCCO)cc2)O[C@H]1c1ccccc1N=[N+]=[N-],0.97
5,CCOC(OCC)P(=O)(O)CCCN,1.07
6,CCn1cc2nc(N3CCNCC3)[nH]cc-2c1=O,1.1
7,CCC(C)C(=O)O[C@@H]1C[C@@]2(C)[C@H](c3ccoc3)OC(=O)CC23OC2(C)OC34[C@H](OC(=O)C(C)C)[C@@]3(O)[C@@H](OC(=O)C5(C)OC5C)[C@@]5(C)C[C@]3(O)[C@@](C)([C@H]5CC(=O)OC)C14O2 (some centres not stated),1.05
8,[N-]=[N+]=NCc1ccccc1C[C@]1(C(=O)NCc2ccccc2)N=C(c2ccc(OCCCO)cc2)O[C@H]1c1ccccc1N=[N+]=[N-],1.04
9,C[C@]12CCC3C(CC[C@H]4C[C@H](O)CC[C@]34C)C1CC[C@@H]2O (some centres not stated),0.969
10,O=C([O-])c1ccccc1-c1c2cc(Br)c(=O)cc-2oc2[c]([Hg][OH])c([O-])c(Br)cc12.[Na+].[Na+],0.5
11,c1ccc(CN2CCNCC2)nc1,0.934
12,Br.COC(=O)C1=CCCN(C)C1,1.03
13,CCN(C)C(=O)Oc1cccc([C@H](C)N(C)C)c1.O=C(O)[C@H](O)[C@@H](O)C(=O)O,1.09
14,C[C@]12CCC3[C@@H](CC[C@@]45O[C@@H]4C(O)=C(C#N)C[C@]35C)C1CC[C@@H]2O (some centres not stated),0.934
15,COC(=O)[C@H]1CNCCN1c1ccccc1,1.14
16,Cc1cccc(C)c1NC1=NCCCS1,0.829

row,SMILES,relative growth
1,COc1cc2c(cc1OC)[C@@H]1CC(=O)[C@@H](CC(C)C)CN1CC2,1.02
2,O=C1CCC[C@H]2[C@@H]3CCCN4CCC[C@H](CN12)[C@H]34,0.955
3,O=P1(NCCCl)OCCCN1CCCl (configuration not stated),1.03
4,CC(=O)Oc1ccc(Cl)c2cccnc12,0.19
5,Oc1ccc(Cl)cc1,0.958
6,CC(C)c1c(CN(C)C(C)Cc2ccccc2)n(C)n(-c2ccccc2)c1=O (configuration not stated),1.07
7,CC(C)(C)CC(=O)N1C[C@H]2C[C@@H]1CN2,1
8,OC[C@H]1O[C@@H](Oc2ccc(/C=C/c3cc(O)cc(O)c3)cc2O)[C@H](O)[C@@H](O)[C@@H]1O,1.19
9,C[C@@H](O)CN1C[C@H]2C[C@@H](C1)c1cccc(=O)n1C2,1.12
10,Cc1cccc(Cc2c[nH]cn2)c1C.Cl,0.846
11,COc1cc2c(cc1OC)C(C)NCC2 (configuration not stated),0.894
12,NC(=O)CN1CCCC1=O,1.3
13,Cc1ccc(C)c(C(=O)[C@H](N)CC(C)C)c1,0.919
14,C[C@@]12C(=O)OC(=O)[C@]1(C)C1CCC2O1,0.928
15,C[C@@H]1CC[C@H]2[C@@H](C)C(=O)O[C@@H]3O[C@]4(C)CC[C@@H]1[C@]32OO4,0.93
16,O=C1NCC2(CNC2)O1,0.974
